Experimental data taken from patent US7335757B2, “Carbonyl reductase, gene encoding the same, and process for producing optically active alcohols using the same” (Mitsubishi Chemical Corporation, priority 2002, dated 2008).

System: carbonyl reductase
Experiment: Reduction activity of the enzyme on various ketones and aldehyde (initial rate of NADPH decrease)
Format: biochemical, Ogataea minuta var. nonfermentans IFO 1473
Conditions: relative to 2,2,2-trifluoroacetophenone defined as 100, 0.1 M phosphate buffer pH 7.0

| Compound | Specific activity (%) |
| --- | --- |
| CC(C)(C)C(=O)CBr | 55.4 |
| 2,3-Pentadione | 21.5 |
| 3-Chloro-2,4-pentadione | 32.7 |
